Only a part is listed here, and it is no random draw. Some tests of the compounds listed are not included; inactive here does not mean inactive elsewhere. Calls of active or inactive are those of the source. Cut-off read from the data, not from the text of the source: active = activation above about 33% (passing the limit was not always enough); inactive = the rest.

Protein sequences, listed by entry. Tags and fused reporters are not part of them.
UniProt P25929, whole entry: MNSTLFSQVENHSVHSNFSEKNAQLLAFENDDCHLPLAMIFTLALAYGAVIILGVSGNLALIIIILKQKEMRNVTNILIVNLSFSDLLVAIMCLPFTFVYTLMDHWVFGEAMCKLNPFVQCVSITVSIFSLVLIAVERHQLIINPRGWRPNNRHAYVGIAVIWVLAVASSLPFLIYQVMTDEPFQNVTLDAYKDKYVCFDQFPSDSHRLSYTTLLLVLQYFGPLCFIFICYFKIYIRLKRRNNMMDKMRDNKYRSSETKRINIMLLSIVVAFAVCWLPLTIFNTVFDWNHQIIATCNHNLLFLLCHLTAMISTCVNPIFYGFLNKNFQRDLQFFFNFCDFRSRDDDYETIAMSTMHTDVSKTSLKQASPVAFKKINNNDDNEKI

The target in the test is Neuropeptide Y receptor type 1 (Homo sapiens) (UniProt P25929). As to the kind of experiment: NPY-Y1 receptor potentiators or agonists, primary screen, cell-based (AID 1304).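 Note: cells stimulated with NPY at EC10 then isoproterenol at EC100; 0% = low agonist plus stimulus and 100% = saturating agonist plus stimulus.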 The following applies: NPY-Y1 expressing cells, potentiator/agonist activation; at 3.6 µM; hits give high values.
Regarding `CN(C)c1cccc(C(=O)NCC2(N(C)C)CCCCC2)c1`, the activation is inactive: 12%.

For the compound `COc1ccc(Br)c(C(=O)NCC2(N3CCCCC3)CCCCC2)c1`, the activation was inactive: -9.06%.

On to `O=C(OC1CN2CCC1CC2)C(CO)(c1ccccc1)c1ccccc1` (stereo unspecified), for which the activation was inactive: -1.79%.

For `COc1cccc(C(=O)NCC2(N3CCCCC3)CCCCC2)c1`, the activation was inactive: 10.9%.

For `CCN1CCCC(OC(=O)C2(O)c3ccccc3C=Cc3ccccc32)C1` (stereo unspecified), the activation was inactive: 3.56%.

As to `C=CCN1CCN(CCOC(=O)C(O)(c2ccccc2)c2ccccc2)CC1`, the activation is inactive: -5.95%.

For the compound `CN(C)C1CCCC1OC(=O)C(O)(c1ccccc1)c1ccccc1` (stereo unspecified), the activation is inactive: 14.1%.

As to `Cc1ccccc1C(=O)NCC1(N2CCCCC2)CCCCC1`, the activation was inactive: -15%.

For the compound `CC(C)N1C(=O)CC2(CCN(CCOC(=O)C(O)(c3ccccc3)c3ccccc3)CC2)C1=O`, the activation was inactive: 2.48%.

Regarding `CCN(CC)CC(C)C(C)OC(=O)C(O)(c1ccccc1)c1ccccc1` (stereo unspecified), the activation is inactive: 9.04%.

For `O=C(NCC1(N2CCCCC2)CCCCC1)c1cc([N+](=O)[O-])ccc1Cl`, the activation was inactive: 5.56%.

The values above are taken from PubChem BioAssay AID1304 (The Scripps Research Institute Molecular Screening Center, 2008).
